The values that follow are results of earlier work, collected in US11484575B2, “Compositions and methods comprising bone morphogenetic protein and NEMO binding peptide” (Cedars-Sinai Medical Center, priority 2018, dated 2022).

This series has as its system spine fusion. Particulars: total dose of 30 μg rhBMP-2/side/rat; cited from earlier work.

In the case of “rhBMP-2: Recombinant human bone morphogenic protein-2 used to enhance bone formation in spine surgery”, the spine fusion is 100%.
